From PubChem BioAssay
eIF4H inh: inhibitors of RNA binding by human eIF4H. Q15056. eIF4H fluorescence polarization binding assay. inhibition, % at 35 µM. 290,000 compounds, 0.94% hits. AID 2012;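 further: calls also rest on retests at 20 µM and on dose response follow-up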
PABP FP inh: PABP-poly(A) binding inhibition; 290,000 compounds, 1% hits; PABP-poly(A) RNA binding, fluorescence polarization; calls only at 35 µM; P11940; AID 2014;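 further: calls also rest on retests at 20 µM and on dose response follow-up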
Pemphigus Ab inh: blocks pemphigus antibody binding to human desmoglein-3 | DSG3-coupled beads, scFv-anti-DSG3-GFP binding, flow cytometry; active compounds read low | binding (percent of control), % at 10 µM | 310,000 compounds, 0.48% hits | AID 588358;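 active means binding more than 3 SD below its plate's average and above zero; inconclusive means below that plate limit but binding exactly zero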;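 further: hits lower antibody fragment binding to DSG3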
UUG fidelity: modulators of yeast start codon fidelity, primary screen, whole organism, S. cerevisiae, single point, plate reader | S. cerevisiae UUG-firefly luciferase reporter, luminescence/redox ratio | activity score, % at 18.7 µM | hit rate 0.13% among 350,000;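 active = replicate mean at a twofold rise or more, about +100% in these data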;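 note: firefly luciferase made from a UUG start codon reports start codon fidelity; reporter light over untreated wells divided by growth signal over untreated wells; some hits fall short of that in this replicate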
MLLE-PAM2 inh: blocks PAM2 peptide binding to the PABP1 MLLE domain; P11940; GST-MLLE / FITC-PAM2 fluorescence polarization; inhibition, % at 20 µM; 360,000 compounds, 0.36% hits; in the data active means inhibition above about 35%, passing the limit was not always enough
Numbers stand for hits; . = inactive; ? = inconclusive; / = not tested or not shown; + = active, no number. Only some compounds are listed: those with a hit (about 1.5% of all), similar ones and a draw of the others. Unless noted, how the calls were made is not given here.

SMILES	eIF4H inh	PABP FP inh	Pemphigus Ab inh	UUG fidelity	MLLE-PAM2 inh
NC(=O)CC(NC(=O)Cc1ccc(Br)cc1)c1ccc(NC2CCCC2)c([N+](=O)[O-])c1 (configuration not stated)	.	.	1.8	.	.
C[C@H](CO)N1C[C@H](C)[C@H](CN(C)C(=O)NC2CCCCC2)Oc2ccc(NC(=O)C3CCCCC3)cc2CC1=O	/	/	/	.	/
O=C(O)CCn1c(CO)nc2ccccc21	.	.	.	/	.
O=C(O)CCn1c(-c2ccccn2)nc2ccccc21	91	.	.	.	.
Cc1ccc(-c2cnc3c(c2)C(=O)N([C@@H](C)CO)C[C@@H](C)[C@H](CN(C)Cc2ccccc2C(=O)O)O3)cc1	/	/	/	.	/
CCCN1C[C@@H](C)[C@@H](OC)CN(C)C(=O)c2ccc(NC(=O)C3CCOCC3)cc2OC[C@@H]1C	/	/	/	.	/
O=C(O)c1ccc(NC2=C/C(=N/S(=O)(=O)c3ccccc3)c3ccccc3C2=O)cc1	.	.	.	/	.
Cc1cc(C)c(S(=O)(=O)/N=C2\C=C(Nc3ccc(C(=O)O)cc3)C(=O)c3ccccc32)c(C)c1	60	+	.	.	.
C[C@H]1CN([C@@H](C)CO)C(=O)Cc2cc(NC(=O)Cc3cn(C)c4ccccc34)ccc2O[C@H]1CN(C)S(C)(=O)=O	/	/	/	.	/
Cc1ccc(-c2nn3c(C)nnc3s2)cc1NC(=O)C(C)C	.	.	82	.	.
O=C1c2cccc(O)c2C(=O)c2c(O)cccc21	.	.	/	/	/
O=C1c2cccc(Sc3ccccc3)c2C(=O)c2c(Sc3ccccc3)cccc21	.	.	.	119	.
CN(C)CC#Cc1ccc([C@H]2[C@H](CO)N3CCCCN(C(=O)C4CCCC4)C[C@@H]23)cc1	/	/	/	.	/
Nc1nc(=S)c2ncn(C3OC(CO)C(O)C3O)c2[nH]1 (configuration not stated)	89	+	.	.	.
Nc1nc(=S)c2ncn([C@@H]3O[C@H](CO)[C@@H](O)[C@H]3O)c2[nH]1	/	/	.	.	.
C[C@H]1CCCCO[C@H](CN(C)C)[C@@H](C)CN([C@@H](C)CO)C(=O)c2cc(N(C)C)ccc2O1	/	/	/	.	/
CC1CCCN(CC(=O)N2c3ccccc3Sc3ccccc32)C1 (configuration not stated)	3.1	.	.	/	.
C[n+]1cccc2cccc([O-])c21	.	+	/	/	.
COc1ccc(N2CCN(S(=O)(=O)c3cccc(C(F)(F)F)c3)CC2)cc1	.	.	-25	.	.
FC(F)(F)c1cccc(-c2nc3nc(Cl)c(Cl)nc3[nH]2)c1	?	+	.	.	.
CC1=C(C#N)c2nc(N)c(C#N)c(C)c2/C1=C\c1ccc(-c2ccccc2C(=O)O)o1	86	+	.	/	.
COc1cc(/C=C2/C(C)=C(C#N)c3nc(N)c(C#N)c(C)c32)ccc1OCC(=O)O	.	.	.	/	/
COc1ccc2oc(=Nc3cc(F)ccc3F)c(C(N)=O)cc2c1	active	+	.	/	.
COCCNC(=O)CSc1ncnc2sc(-c3ccccc3)cc12	.	.	103	/	.
C[N+]1(CC(=O)OCCCC2CCCCC2)CCCC1	.	+	.	/	.
SMILES	eIF4H inh	PABP FP inh	Pemphigus Ab inh	UUG fidelity	MLLE-PAM2 inh
N#Cc1c(-c2ccco2)c2c([nH]c1=S)CCCC2	.	.	.	.	.
N#Cc1c2c(c(-c3ccco3)[nH]c1=O)CCCC2	.	.	.	/	42
O=C1C(=NO)CCc2ccccc21	/	/	.	.	.
O/N=C1/CCc2cccc3cccc1c23	62	+	.	.	.
CC(C)NC(=O)NCC[C@H]1CC[C@H](NC(=O)Nc2ccccc2)[C@H](CO)O1	/	/	/	.	/
O=C(NC(Cc1ccccc1)C(=O)O)/C(=C\c1ccccc1F)NC(=O)c1ccccc1 (configuration not stated)	.	.	.	/	.
O=C(NC(Cc1ccccc1)C(=O)O)/C(=C/c1ccc(Cl)cc1)NC(=O)c1ccccc1 (configuration not stated)	active	.	.	.	.
O=C(N/N=C/c1cccc(F)c1)c1cc(-c2ccco2)nc2ccccc12	84	+	.	.	.
COc1ccccc1CNC(=O)COC(=O)c1cc(-c2ccco2)nc2ccccc12	90	+	.	.	.
COc1ccc(NC(=O)CN(C)C(=O)c2cc(-c3ccco3)nc3ccccc23)cc1	/	/	.	.	.
COc1ccc(NC(=O)c2cc(-c3ccco3)nc3ccccc23)cc1	/	/	65	/	.
COc1ccccc1CNC(=O)COC(=O)c1cc(C)nc2ccccc12	/	/	.	.	.
CCc1nnc(NC(=O)c2cc(-c3ccccn3)nc3ccccc23)s1	.	.	.	.	.
CCc1nnc(NC(=O)c2cc(-c3ccco3)nc3ccccc23)s1	76	.	/	.	.
C[C@H](CO)N1C[C@H](C)[C@H](CN(C)CC2CCCCC2)OCCCC[C@H](C)Oc2ccc(NC(=O)Nc3ccc(F)cc3)cc2C1=O	/	/	/	.	/
CN1C(=O)c2cc(NC(=O)C3CCCC3)ccc2OC[C@@H]2O[C@H](CC(=O)NCC(F)(F)F)CC[C@@H]21	/	/	/	.	/
CCC(=O)N1C[C@@H](C)[C@@H](OC)CN(C)C(=O)c2cc(NC(=O)C3CCOCC3)ccc2OC[C@@H]1C	/	/	/	.	/
COc1ccc(NC(=O)c2cc(-c3ccco3)nc3ccccc23)cc1S(=O)(=O)N1CCOCC1	.	+	.	.	.
O=C(N/N=C/c1ccc2ncccc2c1)c1cc(-c2cccs2)nc2ccccc12	.	.	70	.	.
Cc1ccc(NC(=O)c2cc(-c3ccco3)nc3ccccc23)cc1S(=O)(=O)N1CCOCC1	66	+	.	.	.
C[C@@H]1CN([C@H](C)CO)C(=O)c2cccc(NS(=O)(=O)c3ccc(Cl)cc3)c2O[C@@H]1CN(C)Cc1ccc2c(c1)OCO2	/	/	/	.	/
CN(CCO)c1nc(N)c2c(N)nc3c(c2c1C#N)CC(=O)N3C1CCCC1	?	+	/	/	/
N#Cc1c(N2CCN(c3ccc(F)cc3)CC2)nc(N)c2c(N)nc3c(c12)CC(=O)N3C1CC1	?	+	.	/	.
CN(C)c1nc(N2CCN(c3ccc(F)cc3)CC2)c(C#N)c(=O)o1	.	.	.	.	.
CCCC#Cc1cnc2c(c1)C(=O)N([C@H](C)CO)C[C@H](C)[C@H](CN(C)C(=O)NCCC)O2	/	/	/	.	/
SMILES	eIF4H inh	PABP FP inh	Pemphigus Ab inh	UUG fidelity	MLLE-PAM2 inh
COC(=O)c1c(NC(=O)CC2Nc3cc(C)c(C)cc3NC2=O)sc(C)c1C (configuration not stated)	86	+	.	.	.
CCc1cc(C(=O)OC)c(NC(=O)CC2Nc3cc(C)c(C)cc3NC2=O)s1 (configuration not stated)	.	.	.	/	.
CN1[C@H](C(=O)Nc2ccccc2)[C@@H](CO)[C@@H]2Cn3c(ccc(-c4ccccc4)c3=O)[C@@H]21	/	/	/	.	/
COc1ccc(CC(=O)N/N=C/c2ccc(-c3cccc(C(=O)O)c3)o2)cc1OC	81	+	.	.	.
COc1ccc(CC(=O)N/N=C/c2ccc(-c3ccc(F)cc3)o2)cc1OC	.	.	.	.	.
Cc1ccc(OCC(=O)N/N=C\c2ccc(-c3cccc(C(=O)O)c3)o2)c(C)c1	89	.	.	.	.
